pIC50: −log10 of the molar value.
Legend:
Format in all cases: biochemical
PDE8A = PDE8A (Homo sapiens (Human), UniProt O60658); test: In vitro enzyme assay, PDE8; settings: 10 nM cAMP
PDE5A1 = PDE5A1 (Homo sapiens (Human), UniProt O76074); test: In vitro enzyme assay, PDE5; settings: PDE5A, 500 nM cGMP
PDE7A = PDE7A (Homo sapiens (Human), UniProt Q13946); test: In vitro enzyme assay, PDE7; settings: 15 nM cAMP

Amino acid sequences for entries named in this document (tags omitted). A change or cut given only in a name is not applied to a line headed by its entry.
UniProt O60658: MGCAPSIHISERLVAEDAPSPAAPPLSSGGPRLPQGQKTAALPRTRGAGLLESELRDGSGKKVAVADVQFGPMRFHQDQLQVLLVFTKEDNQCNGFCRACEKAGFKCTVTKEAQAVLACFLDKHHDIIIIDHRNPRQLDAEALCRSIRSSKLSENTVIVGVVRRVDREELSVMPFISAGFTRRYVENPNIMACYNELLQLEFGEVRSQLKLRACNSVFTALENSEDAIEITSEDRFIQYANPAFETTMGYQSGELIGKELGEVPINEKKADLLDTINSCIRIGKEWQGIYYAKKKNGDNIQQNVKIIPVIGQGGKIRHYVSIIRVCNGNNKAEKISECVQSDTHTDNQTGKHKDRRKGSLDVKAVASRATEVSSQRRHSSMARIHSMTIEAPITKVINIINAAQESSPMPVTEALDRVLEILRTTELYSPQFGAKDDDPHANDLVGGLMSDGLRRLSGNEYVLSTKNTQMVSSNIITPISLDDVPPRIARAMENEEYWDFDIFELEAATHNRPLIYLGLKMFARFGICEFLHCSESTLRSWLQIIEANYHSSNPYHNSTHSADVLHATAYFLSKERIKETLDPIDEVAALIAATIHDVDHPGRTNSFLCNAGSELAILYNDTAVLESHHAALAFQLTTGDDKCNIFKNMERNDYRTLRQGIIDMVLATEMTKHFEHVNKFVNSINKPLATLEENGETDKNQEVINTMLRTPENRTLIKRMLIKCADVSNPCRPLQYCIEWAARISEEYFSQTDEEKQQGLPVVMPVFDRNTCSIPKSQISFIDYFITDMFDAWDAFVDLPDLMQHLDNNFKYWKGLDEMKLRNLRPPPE
UniProt Q13946: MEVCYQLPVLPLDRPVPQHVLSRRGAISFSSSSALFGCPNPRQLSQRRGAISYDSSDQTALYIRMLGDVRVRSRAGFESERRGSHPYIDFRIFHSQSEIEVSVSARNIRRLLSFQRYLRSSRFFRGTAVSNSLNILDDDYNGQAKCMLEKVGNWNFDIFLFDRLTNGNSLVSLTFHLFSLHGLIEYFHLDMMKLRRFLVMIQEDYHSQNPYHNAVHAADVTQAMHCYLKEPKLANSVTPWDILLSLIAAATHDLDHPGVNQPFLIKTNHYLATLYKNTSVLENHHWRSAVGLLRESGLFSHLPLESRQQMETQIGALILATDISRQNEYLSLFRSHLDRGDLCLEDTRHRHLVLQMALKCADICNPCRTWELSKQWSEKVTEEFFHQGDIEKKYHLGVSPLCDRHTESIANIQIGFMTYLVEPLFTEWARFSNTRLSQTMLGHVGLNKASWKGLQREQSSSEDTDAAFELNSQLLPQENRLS

pIC50 (PDE7A) | Structure (SMILES) | pIC50 (PDE8A) | pIC50 (PDE5A1)
 | CCCSc1nc2c(c(=O)n1-c1ccccc1)SCC2 [BC11-38] | < 4.00 | < 4.00
< 4.00 | Cc1ccccc1Nc1ncnc2c1c(-c1ccccc1)cn2-c1ccc(F)cc1 [BC11-28] |  | 
 | O=c1nc2sc3ccccc3n2c(=O)n1-c1ccccc1 [BC11-19] | < 4.00 | < 4.00

From patent US9173884B2, “Inhibitors of phosphodiesterase 11 (PDE11)” (TRUSTEES OF BOSTON COLLEGE, priority 2011, dated 2015)
